# Test results from US12071408B2 (dated 2024).
# Columns and labels:
# [1] = test system: bladder cancer cell line (RT112/84); test: Tumor cell proliferation inhibition (CTG, 72 h); format: cell-based; settings: Homo sapiens, RT112/84, read-out: RT112/84 range of activity (IC50)
# [2] = test system: thyroid cancer cell line (TT); test: Tumor cell proliferation inhibition (CTG, 72 h); format: cell-based; settings: Homo sapiens, read-out: TT range of activity (IC50)
smiles,measurement,setting,value
"CNC(=O)c1cc(Oc2ccc(NC(=O)Nc3ccc(Cl)c(C(F)(F)F)c3)cc2)ccn1 [Sorafenib, reference compound]",IC50,[1],> 1 µM
same,IC50,[2],> 10 µM
